Measured values reported in article PMC6150229, “Simultaneous Determination of Twenty-Five Compounds in Rat Plasma Using Ultra-High Performance Liquid Chromatography-Polarity Switching Tandem Mass Spectrometry and Its Application to a Pharmacokinetic Study” (Molecules : A Journal of Synthetic Chemistry and Natural …, 2017).

Assay: Pharmacokinetic study in sham and myocardial ischemia model rats after a single oral dose of QSKL (UHPLC-psMS/MS of plasma, non-compartmental analysis)
Conditions: for distribution in rat plasma (quantifiable or not): QSKL-treated plasma samples, sham and model rats, single oral dose 8.0 g/kg; for AUC0–t / AUC0–∞ / Cmax / MRT / Tmax / t1/2: oral administration of QSKL, plasma, mean ± SD, n = 6
[1] = model group (MG, myocardial ischemia) rats

Substance | distribution in rat plasma (quantifiable or not) | AUC0–t [1] [ng·h/mL] | AUC0–∞ [1] [ng·h/mL] | Cmax [1] [ng/mL] | MRT [1] [h] | Tmax [1] [h] | t1/2 [1] [h] | AUC0–t (sham group (SG) rats) [ng·h/mL] | AUC0–∞ (sham group (SG) rats) [ng·h/mL] | Cmax (sham group (SG) rats) [ng/mL] | MRT (sham group (SG) rats) [h] | Tmax (sham group (SG) rats) [h] | t1/2 (sham group (SG) rats) [h]
harpagide | quantifiable in most samples | 6.17 ± 3.32 | 6.88 ± 3.71 | 2.83 ± 2.59 | 7.46 ± 3.49 | 0.67 ± 0.52 | 6.42 ± 2.99 | 2.87 ± 1.16 | 3.63 ± 1.31 | 0.590 ± 0.294 | 14.1 ± 3.84 | 1.25 ± 1.01 | 8.65 ± 2.06
liquiritin apioside | quantifiable in most samples | 3.59 ± 2.08 | 4.16 ± 2.41 | 2.39 ± 1.37 | 9.22 ± 6.33 | 0.40 ± 0.23 | 8.15 ± 5.97 | 2.91 ± 1.11 | 3.85 ± 1.38 | 0.800 ± 0.440 | 12.5 ± 5.12 | 0.36 ± 0.31 | 8.54 ± 5.59
